For 1 substance, Kd results are on record in PMC5748972 (The Journal of Cell Biology, 2018).

Amino acid sequences for entries named in this document (tags omitted). Residues count along the entry.
UniProt P08648, 42-1049, chain 1 of 2: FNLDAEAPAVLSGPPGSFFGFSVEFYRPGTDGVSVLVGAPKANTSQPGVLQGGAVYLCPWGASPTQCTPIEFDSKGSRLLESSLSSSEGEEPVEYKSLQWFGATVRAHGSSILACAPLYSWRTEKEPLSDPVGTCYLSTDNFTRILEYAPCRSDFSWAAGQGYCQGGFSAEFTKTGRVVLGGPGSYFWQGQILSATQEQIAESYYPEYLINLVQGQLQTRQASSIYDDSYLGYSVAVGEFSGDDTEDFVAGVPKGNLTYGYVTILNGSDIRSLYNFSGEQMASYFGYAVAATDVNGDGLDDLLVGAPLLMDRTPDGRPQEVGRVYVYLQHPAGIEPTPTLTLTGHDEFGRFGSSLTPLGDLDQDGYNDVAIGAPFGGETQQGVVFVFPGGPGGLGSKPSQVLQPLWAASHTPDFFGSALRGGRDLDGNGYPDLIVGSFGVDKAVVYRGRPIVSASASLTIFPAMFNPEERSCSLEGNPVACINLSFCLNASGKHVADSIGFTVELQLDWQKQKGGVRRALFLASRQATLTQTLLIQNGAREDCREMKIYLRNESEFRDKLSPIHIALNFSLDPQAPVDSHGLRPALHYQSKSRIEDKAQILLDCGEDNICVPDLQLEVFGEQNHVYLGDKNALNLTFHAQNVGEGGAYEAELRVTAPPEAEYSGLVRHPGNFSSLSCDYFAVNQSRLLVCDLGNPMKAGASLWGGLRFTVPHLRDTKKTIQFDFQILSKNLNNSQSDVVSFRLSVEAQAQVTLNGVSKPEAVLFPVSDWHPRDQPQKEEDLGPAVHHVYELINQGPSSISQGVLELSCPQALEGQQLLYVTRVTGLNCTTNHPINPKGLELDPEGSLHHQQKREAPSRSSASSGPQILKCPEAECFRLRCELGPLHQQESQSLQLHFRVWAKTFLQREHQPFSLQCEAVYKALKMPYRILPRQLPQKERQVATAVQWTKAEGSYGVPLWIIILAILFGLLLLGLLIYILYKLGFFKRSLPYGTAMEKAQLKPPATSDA

The test addresses intact integrin α5β1 on the surface of KA4 cells (human (endogenous in K562)) (UniProt P08648). Nature of the test: flow cytometry on cells.

Regarding “fibronectin Fn3 domains 9 and 10 (domain or fragment)”, the Kd was 1.2 µM.
